Test system: M-17 neuroblastoma cells
Assay: growth of cultured M-17 neuroblastoma cells
Format: cell-based
Details: unpublished observations (Bowen et al.)
Description: Evidence supporting a role for FSH, LH, and hCG in driving cell proliferation includes the following: 1) FSH is associated with granulosa cell proliferation (El-Heffiawy T, Zeleznik A J. Synergism between FSH and activin in the regulation of proliferating cell nuclear antigen (PCNA) and cyclin D2 expression in rat granulosa cells. Endocrinology 142:4357-4362, 2001); 2) hCG directly promotes the proliferation of myometrial and leiomyomal cells (Horiuchi A et al. HCG promotes proliferation of uterine leiomyomal cells more strongly than that of myometrial smooth muscle cells in vitro. […] Gynecology and Endocrinology 13:75-81, 1999); 4) one study also has shown that LH stimulates the growth of chondrocytes (cartilage cells) in rabbit epiphyseal growth plates (Webber R J, Sokoloff L. In vitro culture of rabbit growth plate chondrocytes: 1. […] The mechanism by which these hormones exert their mitogenicity is likely via signaling through the insulin/IGF pathway that converges on FKHR (human homolog of daf-16), phosphorylation of which stimulates mitosis (Richards, J S, Sharma, S C, Falender, A E, Lo, Y H. Expression of FKHR, FKHRL1, and AFX genes in the rodent ovary: evidence for regulation by IGF-I, estrogen, and the gonadotropins. Molecular Endocrinology 16, 580-599, 2002). […]

LH: pituitary gonadotropin glycoprotein hormone, heterodimer of a common α-subunit with a unique β-subunit
growth of cultured M-17 neuroblastoma cells: induced
